The values below come from patent US7919498B2, “Substituted pyrazolo[3,4-d]pyrimidines as PI3K inhibitors” (Amgen Inc., priority 2007, dated 2011).

Chains of the proteins cited; added tags and fusions are not shown. Lines headed by an entry give the natural chain unless they say otherwise; changes in a name come on top.
UniProt O00329: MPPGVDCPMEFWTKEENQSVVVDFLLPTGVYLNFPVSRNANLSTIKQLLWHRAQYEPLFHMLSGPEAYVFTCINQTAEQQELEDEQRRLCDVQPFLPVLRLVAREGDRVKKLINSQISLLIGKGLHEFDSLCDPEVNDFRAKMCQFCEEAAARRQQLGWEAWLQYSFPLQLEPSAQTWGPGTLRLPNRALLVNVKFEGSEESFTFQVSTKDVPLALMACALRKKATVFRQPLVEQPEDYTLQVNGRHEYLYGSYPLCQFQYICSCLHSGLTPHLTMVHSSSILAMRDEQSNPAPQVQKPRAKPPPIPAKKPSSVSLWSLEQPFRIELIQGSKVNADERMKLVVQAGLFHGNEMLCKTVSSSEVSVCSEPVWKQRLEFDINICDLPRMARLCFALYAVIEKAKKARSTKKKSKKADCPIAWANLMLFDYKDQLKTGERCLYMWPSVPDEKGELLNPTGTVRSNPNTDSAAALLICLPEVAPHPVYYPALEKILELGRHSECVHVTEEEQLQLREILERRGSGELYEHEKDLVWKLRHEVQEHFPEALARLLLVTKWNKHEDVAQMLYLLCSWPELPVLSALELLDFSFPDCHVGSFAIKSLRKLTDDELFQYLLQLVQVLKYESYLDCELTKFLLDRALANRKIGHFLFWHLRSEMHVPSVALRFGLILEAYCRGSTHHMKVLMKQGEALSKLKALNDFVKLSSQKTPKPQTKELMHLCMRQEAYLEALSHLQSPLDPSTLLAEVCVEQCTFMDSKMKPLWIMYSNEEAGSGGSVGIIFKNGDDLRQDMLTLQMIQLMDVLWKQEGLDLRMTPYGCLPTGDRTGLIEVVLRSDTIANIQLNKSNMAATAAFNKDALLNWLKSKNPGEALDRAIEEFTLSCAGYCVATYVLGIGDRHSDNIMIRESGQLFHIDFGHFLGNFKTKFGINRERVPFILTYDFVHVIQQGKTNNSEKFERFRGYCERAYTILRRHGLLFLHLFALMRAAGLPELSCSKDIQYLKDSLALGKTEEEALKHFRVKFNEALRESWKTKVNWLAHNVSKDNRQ
UniProt P42338, whole entry, species assumed: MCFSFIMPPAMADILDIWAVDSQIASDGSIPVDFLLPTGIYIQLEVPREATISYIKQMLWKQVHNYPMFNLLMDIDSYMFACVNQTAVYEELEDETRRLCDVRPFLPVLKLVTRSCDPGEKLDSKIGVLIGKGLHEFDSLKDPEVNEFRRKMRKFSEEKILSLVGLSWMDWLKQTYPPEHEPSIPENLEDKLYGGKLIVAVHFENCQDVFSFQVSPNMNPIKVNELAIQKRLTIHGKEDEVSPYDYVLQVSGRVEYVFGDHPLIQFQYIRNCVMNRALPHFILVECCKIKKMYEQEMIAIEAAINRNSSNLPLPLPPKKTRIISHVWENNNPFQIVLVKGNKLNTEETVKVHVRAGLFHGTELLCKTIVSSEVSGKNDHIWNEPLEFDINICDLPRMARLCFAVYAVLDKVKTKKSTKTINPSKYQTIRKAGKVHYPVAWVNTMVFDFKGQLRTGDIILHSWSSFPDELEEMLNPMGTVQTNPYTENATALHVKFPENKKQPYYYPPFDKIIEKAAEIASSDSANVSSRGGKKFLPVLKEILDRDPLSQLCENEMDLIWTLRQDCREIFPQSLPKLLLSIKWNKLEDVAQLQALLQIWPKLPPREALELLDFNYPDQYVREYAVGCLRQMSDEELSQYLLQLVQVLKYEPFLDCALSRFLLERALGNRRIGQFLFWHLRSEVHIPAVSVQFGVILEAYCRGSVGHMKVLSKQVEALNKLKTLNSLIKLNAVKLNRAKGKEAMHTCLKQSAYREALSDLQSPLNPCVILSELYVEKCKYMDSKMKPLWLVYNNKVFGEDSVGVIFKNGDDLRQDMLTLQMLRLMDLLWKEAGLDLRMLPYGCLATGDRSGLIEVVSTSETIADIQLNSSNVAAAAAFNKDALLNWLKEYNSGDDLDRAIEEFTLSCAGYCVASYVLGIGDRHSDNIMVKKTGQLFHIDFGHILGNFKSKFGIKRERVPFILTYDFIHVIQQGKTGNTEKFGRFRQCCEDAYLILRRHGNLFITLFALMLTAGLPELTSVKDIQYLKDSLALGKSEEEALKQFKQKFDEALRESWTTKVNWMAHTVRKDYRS

One test deals with T1, PI3Kδ (Homo sapiens, UniProt O00329).
T1 construct: Full length p110 subunits of PI3k α, β and δ, N-terminally labeled with polyHis tag; polyHis (N); made in house; host or cells: Sf9 insect cells (baculovirus)
Description: In vitro enzyme assay of PI3Kδ (residual ATP bioluminescence). Format: biochemical. The procedure: Recombinant Expression of PI3Ks
Full length p110 subunits of PI3k α, β and δ, N-terminally labeled with polyHis tag, were coexpressed with p85 with Baculo virus expression vectors in sf9 insect cells. P110/p85 heterodimers were purified by sequential Ni-NTA, Q-HP, Superdex-100 chromatography. Purified α, β and δ isozymes were stored at −20° C. in 20 mM Tris, pH 8, 0.2M NaCl, 50% glycerol, 5 mM DTT, 2 mM Na cholate. Truncated PI3Kγ, residues 114-1102, N-terminally labeled with polyHis tag, was expressed with Baculo virus in Hi5 insect cells. The γ isozyme was purified by sequential Ni-NTA, Superdex-200, Q-HP chromatography. The γ isozyme was stored frozen at −80° C. in NaH2PO4, pH 8, 0.2M NaCl, 1% ethylene glycol, 2 mM β-mercaptoethanol.
Assays were performed in 25 μL with the above final concentrations of components in white polyproplyene plates (Costar 3355). Phospatidyl inositol phosphoacceptor, PtdIns(4,5)P2 P4508, was from Echelon Biosciences. […] The compound in DMSO (1 μL) was added per test well, and the inhibition relative to reactions containing no compound, with and without enzyme was determined. After assay incubation at room temperature, the reaction was stopped and residual ATP determined by addition of an equal volume of a commercial ATP bioluminescence kit (Perkin Elmer EasyLite) according to the manufacturer's instructions, and detected using a AnalystGT luminometer.

A further test deals with p110β (Homo sapiens, UniProt P42338). As to conditions: read-out: potency on beta; cited from earlier work.

pIC50: −log10 of the molar value.

In the case of `Cc1ccccc1-c1nc2c(C)cccc2cc1Cn1nc(-c2cccc(O)c2)c2c(N)ncnc21` [Example 9, 3-(4-Amino-1-((8-methyl-2-o-tolylquinolin-3-yl)methyl)-1H-pyrazolo[3,4-d]pyrimidin-3-yl)phenol], on PI3Kδ, the pIC50 is 8.15.

For `Cc1cc(C(C)Nc2ccccc2)c2nc(N3CCOCC3)cc(=O)n2c1` (centres unmarked) [TGX-221], the pIC50 on p110β is 8.15.
